In assay [1] the target is Potassium voltage-gated channel subfamily A member 3 (Mus musculus) (UniProt P16390).
The target is the same in assay [2]. The source holds these as a separate data set.

Amino acid sequences for entries named in this document (tags omitted).
UniProt P16390, whole entry: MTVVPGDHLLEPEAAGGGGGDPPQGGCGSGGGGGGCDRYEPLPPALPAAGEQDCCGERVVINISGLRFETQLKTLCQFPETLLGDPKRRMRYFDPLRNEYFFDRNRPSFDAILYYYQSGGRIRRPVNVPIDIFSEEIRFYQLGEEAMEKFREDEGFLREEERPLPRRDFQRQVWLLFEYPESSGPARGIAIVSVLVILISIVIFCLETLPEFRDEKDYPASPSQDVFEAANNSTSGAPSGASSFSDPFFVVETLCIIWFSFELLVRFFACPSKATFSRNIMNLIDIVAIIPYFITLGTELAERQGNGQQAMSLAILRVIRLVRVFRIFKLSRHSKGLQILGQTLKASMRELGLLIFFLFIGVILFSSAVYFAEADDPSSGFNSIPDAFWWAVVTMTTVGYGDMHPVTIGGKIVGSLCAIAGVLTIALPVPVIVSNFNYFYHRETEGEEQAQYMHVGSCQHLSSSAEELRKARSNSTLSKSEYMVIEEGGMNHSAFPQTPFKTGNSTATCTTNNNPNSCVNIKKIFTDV

The compound `COc1ccc2c(c1)c1oc(C(C)C)cc1c(=O)n2C` showed a S in assay [1] of 7.6.

Regarding `COc1ccc2c(c1)c1c(c(=O)n2C)CCC(C)(C)O1`, the S in assay [1] was determined as 2.3.

Regarding `COc1cc2nc3occc3c(OC)c2cc1OC` [KOKUSAGININE], the S in assay [2] is 4.1.

Regarding `COc1ccc2c(c1)c1c(c(=O)n2C)C=CC(C)(C)O1`, the S in assay [1] is 3.1.

(Values after ChEMBL document CHEMBL1134395, “Angular methoxy-substituted furo- and pyranoquinolinones as blockers of the voltage-gated potassium channel Kv1.3” (J Med Chem, 2001).)
